Reference: patent US20250154457A1, “T-CELLS FOR ANTI-HIV CAR-T THERAPY AND METHODS OF USE” (City of Hope, priority 2021, published 2025)

Tests used:
Jurkat cells = assay: 6TG selection of shHPRT-N6 CAR expressing Jurkat cells; assay type: cell-based; settings: 1 uM 6TG for 5 days, flow cytometry
Procedure: FIGS. 2A-2D. 6TG selection of HPRT repressed CAR T-cells. FIG. 2A. Quantitative PCR analysis of HPRT expression following transfection of shHPRT plasmid. Untransfected Jurkat cells were used as a control. FIG. 2B. N6 CAR (control) or shHPRT-N6 CAR were transduced into Jurkat cells and co-cultured with either gp120 expressing HEK293 cells or HEK293 parental cells for 24 hours. Following incubation, the Jurkat cells were analyzed for CD69 expression by flow cytometry. FIG. 2C. N6 CAR or shHPRT-N6 CAR expressing Jurkat cells were incubated in either 0, 1, or 3 uM of 6TG for four days and analyzed for cell counts and viability through a trypan blue assay. FIG. 2D. shHPRT-N6 CAR expressing Jurkat cells cultured in 0 or 1 uM 6TG for 5 days were analyzed for CAR expression through flow cytometry.

T-cells = assay: Growth and phenotype of enrichment anti-HIV CAR T-cells after 6TG selection; assay type: cell-based
Text: However, the growth of the 6TG-treated anti-HIV CAR T-cells growth was equivalent to anti-HIV CAR-T-cells that were not subjected to 6TG treatment (FIG. 14B).
Phenotypically, Applicant observed that the CD4 ratio dropped ˜10% following 6TG treatment (FIG. 14C), which could have potential consequences for CAR functionality^153.

With `Nc1nc2nc[nH]c2c(=S)[nH]1` [6TG, 6-thioguanine] the “anti-HIV CAR expressing cells in selected population” value (Jurkat cells) was over 90%, the “CD45RO and CD45RA ratios” value (T-cells; following 6TG selection) was “no observable difference” and the CD62L ratios (T-cells; following 6TG selection) was “noticeable decrease”. For the same molecule, the “drop of CD4 ratio” value (T-cells; following 6TG treatment) was about 10%.
